Experimental findings from US7582649B2, “Hydroxy alkyl substituted 1,3,8-triazaspiro[4.5]decan-4-one derivatives useful for the treatment of ORL-1 receptor mediated disorders” (Janssen Pharmaceutica, NV, priority 2002, dated 2009) are described below.

By UniProt entry, the sequences of proteins in these tests, tags left out. Where a name states a change or a piece, a line headed by the entry shows the natural chain unless it says otherwise.
UniProt P41145: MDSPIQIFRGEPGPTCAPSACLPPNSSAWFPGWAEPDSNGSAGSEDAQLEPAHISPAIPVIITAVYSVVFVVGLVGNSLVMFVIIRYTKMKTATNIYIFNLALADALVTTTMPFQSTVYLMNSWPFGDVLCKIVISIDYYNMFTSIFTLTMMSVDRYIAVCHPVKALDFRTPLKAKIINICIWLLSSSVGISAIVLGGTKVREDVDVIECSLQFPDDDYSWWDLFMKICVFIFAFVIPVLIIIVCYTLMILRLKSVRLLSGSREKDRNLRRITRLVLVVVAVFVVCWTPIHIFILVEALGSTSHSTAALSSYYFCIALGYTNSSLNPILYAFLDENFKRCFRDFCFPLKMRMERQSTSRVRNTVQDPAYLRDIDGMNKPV
UniProt P35372: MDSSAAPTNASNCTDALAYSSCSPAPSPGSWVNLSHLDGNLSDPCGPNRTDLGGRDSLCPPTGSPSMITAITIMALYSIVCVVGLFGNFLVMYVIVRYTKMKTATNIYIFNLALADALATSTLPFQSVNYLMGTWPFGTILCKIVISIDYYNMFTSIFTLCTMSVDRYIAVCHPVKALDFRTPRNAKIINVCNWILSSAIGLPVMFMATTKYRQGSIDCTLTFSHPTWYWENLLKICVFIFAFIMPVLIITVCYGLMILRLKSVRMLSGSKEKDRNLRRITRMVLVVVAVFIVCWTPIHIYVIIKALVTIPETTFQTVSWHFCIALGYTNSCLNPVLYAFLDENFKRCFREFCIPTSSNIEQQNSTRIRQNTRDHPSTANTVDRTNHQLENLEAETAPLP
UniProt P41143: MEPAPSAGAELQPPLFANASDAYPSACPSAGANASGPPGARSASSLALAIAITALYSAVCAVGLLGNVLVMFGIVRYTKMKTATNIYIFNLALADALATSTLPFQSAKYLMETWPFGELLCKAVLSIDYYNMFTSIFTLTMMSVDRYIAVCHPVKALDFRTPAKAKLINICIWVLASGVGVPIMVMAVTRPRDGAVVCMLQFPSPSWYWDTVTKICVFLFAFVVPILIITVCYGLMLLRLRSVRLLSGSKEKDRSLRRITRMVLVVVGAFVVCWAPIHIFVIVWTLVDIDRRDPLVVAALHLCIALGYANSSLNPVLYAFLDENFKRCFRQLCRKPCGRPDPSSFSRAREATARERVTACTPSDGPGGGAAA

pIC50: −log10 of the molar value. Where only a bound is given, the exact number is not on record here.

The target of assay [1] is kappa opioid receptor (Homo sapiens, UniProt P41145). The experiment in a line: Filtration binding assay: kappa opioid receptor. The conditions noted are these: read-out: Kappa IC50; mean where tested more than once.
For assay [2], the target named is mu opioid receptor (Homo sapiens, UniProt P35372). The experiment in a line: Filtration binding assay: mu opioid receptor. The conditions noted are these: read-out: Mu IC50; mean where tested more than once.
The target in assay [3] is delta opioid receptor (Homo sapiens, UniProt P41143). Briefly: Filtration binding assay: delta opioid receptor. The conditions noted are these: read-out: Delta IC50; mean where tested more than once.

Turning to “(R)-8-Acenaphthen-1-yl-1-(4-fluoro-phenyl)-3-(R)-oxiranylmethyl-1,3,8-triazaspiro[4.5]decan-4-one”, the figures for the pIC50 in assay [1], in assay [2] and in assay [3] were 6.36, 6.42 and under 5.00, respectively.
